Assay results published in PMC7349836, “Fructose 1,6-Bisphosphatase 2 Plays a Crucial Role in the Induction and Maintenance of Long-Term Potentiation” (Cells, 2020).

Protein sequences, listed by entry. Tags and fused reporters are not part of them.
UniProt Q9UQM7, whole entry: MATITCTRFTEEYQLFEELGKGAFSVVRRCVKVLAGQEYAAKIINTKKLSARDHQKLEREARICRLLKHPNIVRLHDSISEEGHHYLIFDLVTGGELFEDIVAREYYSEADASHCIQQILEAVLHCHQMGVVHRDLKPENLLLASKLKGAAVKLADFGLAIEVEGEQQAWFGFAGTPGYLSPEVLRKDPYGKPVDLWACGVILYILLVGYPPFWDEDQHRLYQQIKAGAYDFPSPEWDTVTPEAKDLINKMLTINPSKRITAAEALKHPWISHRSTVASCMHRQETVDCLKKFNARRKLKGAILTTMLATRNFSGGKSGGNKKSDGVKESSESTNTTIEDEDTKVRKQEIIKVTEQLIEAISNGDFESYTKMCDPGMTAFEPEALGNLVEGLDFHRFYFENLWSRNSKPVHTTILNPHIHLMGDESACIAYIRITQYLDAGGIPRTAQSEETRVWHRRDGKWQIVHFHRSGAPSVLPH

Key:
[1] = molecular target: T1, Camk2α (ThermoFisher Scientific, PR4586C) (UniProt Q9UQM7 1-478); assay: BLI; Camk2α (3.5 µg/mL) loaded on anti-His (His2) biosensor; Fbp2 50-400 nM; 25 °C; PBS with 2 mM Mg2+ and 10 µM Ca2+; global 1:1 fit and steady-state analysis; details: both partners purified
[2] = molecular target: T1, Camk2α (ThermoFisher Scientific, …); assay: MST; Camk2α (50 nM) labelled with RED tris-NTA; Fbp2 titrated 0.397 nM-13 µM; PBS with 0.05% Tween; 23 °C; details: both partners purified

Kd [1]: 100 nM | Kd [2]: 1200 nM
B1: recombinant human fructose 1,6-bisphosphatase 2 (Fbp2) (enzyme, UniProt O00757 1-339, looked up)
chain: MTDRSPFETDMLTLTRYVMEKGRQAKGTGELTQLLNSMLTAIKAISSAVRKAGLAHLYGIAGSVNVTGDEVKKLDVLSNSLVINMVQSSYSTCVLVSEENKDAIITAKEKRGKYVVCFDPLDGSSNIDCLASIGTIFAIYRKTSEDEPSEKDALQCGRNIVAAGYALYGSATLVALSTGQGVDLFMLDPALGEFVLVEKDVKIKKKGKIYSLNEGYAKYFDAATTEYVQKKKFPEDGSAPYGARYVGSMVADVHRTLVYGGIFLYPANQKSPKGKLRLLYECNPVAYIIEQAGGLATTGTQPVLDVKPEAIHQRVPLILGSPEDVQEYLTCVQKNQAGS
notes: fructose 1,6-bisphosphatase 2 (Fbp2), human, recombinant; The oligomeric state in these assays is not measured here; dimers and tetramers are cited from earlier work; source: recombinant, purified as described by [12]
